Sequences of proteins named here, by UniProt entry; tags and fusion partners are left off.
UniProt P33535, whole entry: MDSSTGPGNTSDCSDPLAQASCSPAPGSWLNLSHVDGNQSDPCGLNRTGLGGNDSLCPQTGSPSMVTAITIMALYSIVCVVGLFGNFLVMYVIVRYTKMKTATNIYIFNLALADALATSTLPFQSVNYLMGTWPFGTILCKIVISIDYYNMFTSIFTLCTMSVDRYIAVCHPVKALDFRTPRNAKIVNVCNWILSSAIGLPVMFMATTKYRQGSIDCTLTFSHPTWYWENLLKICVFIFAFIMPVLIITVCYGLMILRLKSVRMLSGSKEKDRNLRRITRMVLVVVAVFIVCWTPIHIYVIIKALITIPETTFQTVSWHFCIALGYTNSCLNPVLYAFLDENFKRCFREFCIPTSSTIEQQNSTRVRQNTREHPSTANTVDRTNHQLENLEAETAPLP

According to ChEMBL document CHEMBL1135665, “Synthesis and biological evaluation of 14-alkoxymorphinans. 17. Highly delta opioid receptor selective 14-alkoxy-substituted indolo- and benzofuromorphinans” (J Med Chem, 2002):

Target: Mu-type opioid receptor (Rattus norvegicus, UniProt P33535)
Test: Binding affinity at mu opioid receptor 1 in rat brain membrane by [3H]DAMGO displacement.
Type: cell membranes

## Oc1ccc2c3c1O[C@H]1c4[nH]c5ccccc5c4C[C@@]4(O)[C@@H](C2)N(CC2CC2)CC[C@]314 [NALTRINDOLE]
  Ki: 13 nM
